Biological target: BDNF/NT-3 growth factors receptor (Homo sapiens, UniProt Q16620)

The chains behind the UniProt entries cited, without tags or fusion partners.
UniProt Q16620, whole entry: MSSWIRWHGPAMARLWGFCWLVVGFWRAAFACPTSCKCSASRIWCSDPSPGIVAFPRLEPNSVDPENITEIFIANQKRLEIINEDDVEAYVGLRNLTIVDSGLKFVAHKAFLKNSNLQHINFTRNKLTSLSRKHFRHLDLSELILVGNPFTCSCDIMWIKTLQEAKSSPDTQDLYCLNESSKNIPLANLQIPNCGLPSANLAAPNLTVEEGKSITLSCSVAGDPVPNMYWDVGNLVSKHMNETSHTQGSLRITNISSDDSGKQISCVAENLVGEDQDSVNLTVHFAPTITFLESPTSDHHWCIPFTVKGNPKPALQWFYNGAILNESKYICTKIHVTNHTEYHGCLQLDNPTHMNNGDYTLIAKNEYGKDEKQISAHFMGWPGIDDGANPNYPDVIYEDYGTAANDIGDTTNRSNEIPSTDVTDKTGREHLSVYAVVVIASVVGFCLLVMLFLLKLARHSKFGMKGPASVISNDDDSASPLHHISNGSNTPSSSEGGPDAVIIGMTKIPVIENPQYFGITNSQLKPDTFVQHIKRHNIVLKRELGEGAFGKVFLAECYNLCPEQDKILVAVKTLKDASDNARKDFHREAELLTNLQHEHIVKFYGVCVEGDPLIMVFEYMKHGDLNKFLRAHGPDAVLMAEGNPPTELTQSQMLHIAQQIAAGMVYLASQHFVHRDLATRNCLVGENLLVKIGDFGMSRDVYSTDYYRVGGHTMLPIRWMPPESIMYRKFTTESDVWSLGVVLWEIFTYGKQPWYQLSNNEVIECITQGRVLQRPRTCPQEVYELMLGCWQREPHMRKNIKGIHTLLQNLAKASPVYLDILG

With `C[C@H]1Oc2cc(cnc2N)-c2c(nn(C)c2C#N)CN(C)C(=O)c2ccc(F)cc21` [LORLATINIB] the Ki was 23 nM.

— ChEMBL document CHEMBL3286195, “Discovery of (10R)-7-amino-12-fluoro-2,10,16-trimethyl-15-oxo-10,15,16,17-tetrahydro-2H-8,4-(metheno)pyrazolo[4,3-h][2,5,11]-benzoxadiazacyclotetradecine-3-carbonitrile (PF-06463922), a macrocyclic inhibitor of anaplastic lymphoma kinase (ALK) and c-ros oncogene 1 (ROS1) with preclinical brain …” (J Med Chem, 2014)
